# Results as given in patent US7033773B1, “Screening assays for G protein coupled receptor agonists and antagonists” (The General Hospital Corporation, priority 1997, dated 2006).
# How the values were obtained:
# rat PTHR = target: T1, rat PTHR (Rattus norvegicus, UniProt P25961); assay: Cellular phosphate uptake in LLC-PK1 cells expressing rat PTHR; format: cell-based; details: EW5 cells
# T1 construct: expressed in transfected cells; host or cells: LLC-PK1 porcine renal epithelial cells (EW5; also EW29, AR-C38, AR-B44)
# T1 sequence (P25961 27-591): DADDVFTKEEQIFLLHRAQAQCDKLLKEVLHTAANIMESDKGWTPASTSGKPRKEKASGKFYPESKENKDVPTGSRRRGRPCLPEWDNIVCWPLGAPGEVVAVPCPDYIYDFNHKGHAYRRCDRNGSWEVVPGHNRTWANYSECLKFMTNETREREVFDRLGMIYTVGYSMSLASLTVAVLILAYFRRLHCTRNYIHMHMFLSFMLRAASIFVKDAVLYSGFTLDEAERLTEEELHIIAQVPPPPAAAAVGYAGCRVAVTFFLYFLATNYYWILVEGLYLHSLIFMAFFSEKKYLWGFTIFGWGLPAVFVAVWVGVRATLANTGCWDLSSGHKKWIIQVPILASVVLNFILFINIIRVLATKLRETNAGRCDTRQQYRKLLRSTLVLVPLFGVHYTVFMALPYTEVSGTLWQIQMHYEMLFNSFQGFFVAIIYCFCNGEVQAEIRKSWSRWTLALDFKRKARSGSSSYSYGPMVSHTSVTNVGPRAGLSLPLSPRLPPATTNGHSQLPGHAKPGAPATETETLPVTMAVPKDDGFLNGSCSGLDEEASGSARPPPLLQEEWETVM
# Method: Cells were seeded into 24-well plates at a density of 2.5×10^5 cells/well and cultured for a further 2 days before study. Twenty four hours before assay, cells were refed with 0.5 ml of DMEM containing 0.1% BSA. The next day, cells were refed with serum-free medium (DMEM+0.1% BSA) containing drugs or peptides, and the incubations were continued at 37° C. under 5% CO2 in air for another 6 hr. Cells then were washed with prewarmed Buffer B without BSA and Na2HPO4 and then were incubated at 37° C. for 5 min in 0.25 ml of the same buffer containing [^32P]orthophosphate (4 uCi/ml) and 0.1 mM Na2HPO4. Phosphate uptake was arrested by adding 1 ml of ice-cold sodium-free “stop buffer” [10 mM HEPES (pH 7.4), 140 mM choline chloride, and 5 mM sodium arsenate], followed by two further washes with same buffer. The drained cell layer then was solubilized in 0.5 ml of Lysis Buffer, and cell-associated radioactivity was determined by Cerenkov counting, as previously described (Guo, J., et al., Endocrinology 136:3884-3891 (1995)).
# Responses to hPTH(1-34) or hPTH(1-31) (1000 nM) were measured in EW5 cells, which express 320,000 rat PTHRs per cell. Each value is the mean±SEM of a representative experiment performed in triplicate. Similar results were obtained in at least 3 individual experiments. […]
# human PTH/PTHrP receptor = target: T2, human PTH/PTHrP receptor (Homo sapiens, UniProt Q03431); assay: Cellular cAMP accumulation in LLC-PK1 cells expressing human PTHR; format: cell-based; parameters: transfected with a full-length human PTH/PTHrP receptor cDNA; expressed in transfected cells; details: 1000 nM, 15 min, mean±SD
# T2 sequence (Q03431 27-593): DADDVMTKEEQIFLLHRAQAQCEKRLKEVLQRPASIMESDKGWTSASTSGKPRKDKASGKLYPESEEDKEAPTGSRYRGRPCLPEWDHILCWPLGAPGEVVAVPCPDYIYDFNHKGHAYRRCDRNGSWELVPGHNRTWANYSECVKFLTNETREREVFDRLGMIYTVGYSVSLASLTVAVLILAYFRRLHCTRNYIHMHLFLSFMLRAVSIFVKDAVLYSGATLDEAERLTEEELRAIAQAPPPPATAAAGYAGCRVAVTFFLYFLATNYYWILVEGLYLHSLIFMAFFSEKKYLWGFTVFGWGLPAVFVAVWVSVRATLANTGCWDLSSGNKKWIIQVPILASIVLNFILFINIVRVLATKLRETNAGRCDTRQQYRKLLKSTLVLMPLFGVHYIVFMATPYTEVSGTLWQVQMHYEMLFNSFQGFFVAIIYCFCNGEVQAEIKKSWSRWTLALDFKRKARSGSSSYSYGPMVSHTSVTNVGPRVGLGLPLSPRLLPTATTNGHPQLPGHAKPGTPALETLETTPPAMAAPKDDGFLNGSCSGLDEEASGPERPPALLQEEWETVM
# Method: Cells were seeded into 24-well plates at a density of 2.5×10^5 cells/well and cultured for a further 2 days before study. The cells were rinsed once with 0.5 ml of ice-cold Buffer B [10 mM HEPES (pH 7.4), 130 mM NaCl, 5 mM KCl, 1.2 mM CaCl2, 1 mM MgCl2, 1.2 mM Na2HPO^4 5 mM glucose, and 0.1% heat-inactivated BSA] supplemented with 1 mM isobtylmethylxanthine (IBMX), and placed on ice. Treatments were added to each well in 0.25 ml of IBMX-supplemented Buffer B, after which the plates were incubated at 37° C. for 15 min. The buffer then was rapidly aspirated, the plates were rapidly transferred onto liquid nitrogen, and the frozen monolayers were subsequently thawed directly into 0.5 ml of 50 mM HCl. The extracted cAMP then was measured using a commercial RIA kit (Dupont-New England Nuclear, Boston, Mass.). Results were expressed as fold-basal, where basal levels ranged between 38 and 128 pmol/mg protein/15 min. The basal level of cAMP accumulation in native LLC-PK1 cells was not consistently altered in subclones that expressed wild type PTH/PTHrp receptors.
# Maximal PTH-dependent cAMP accumulation was assessed in the human PTHR-transfected LLC-PK1 subclones following incubation for 15 min with a high concentration (1000 nM) of hPTH(1-34) (Table 1). As reported previously for LLC-PK1 cells that stably expressed rat PTHRs (Guo, J., et al., Endocrinology 136:3884-3891 (1995)), the maximal adenylyl cyclase response was relatively independent of the surface density of human PTHRs above a relatively low threshold (relative to that required for PLC activation—see below). In the case of the human PTHR, however, this threshold for saturation of maximal AC activation appeared to lie between 120,000 and 280,000 (Table 1), which is at least 6 to 10-fold higher than that previously observed for the rat PTHR (Guo, J., et al., Endocrinology 136:3884-3891 (1995)).
compound,measurement,setting,value
"CC[C@H](C)[C@H](NC(=O)[C@H](CCC(=O)O)NC(=O)[C@H](CO)NC(=O)[C@@H](NC(=O)[C@@H](N)CO)C(C)C)C(=O)N[C@@H](CCC(N)=O)C(=O)N[C@@H](CC(C)C)C(=O)N[C@@H](CCSC)C(=O)N[C@@H](Cc1c[nH]cn1)C(=O)N[C@@H](CC(N)=O)C(=O)N[C@@H](CC(C)C)C(=O)NCC(=O)N[C@@H](CCCCN)C(=O)N[C@@H](Cc1c[nH]cn1)C(=O)N[C@@H](CC(C)C)C(=O)N[C@@H](CC(N)=O)C(=O)N[C@@H](CO)C(=O)N[C@@H](CCSC)C(=O)N[C@@H](CCC(=O)O)C(=O)N[C@@H](CCCNC(=N)N)C(=O)N[C@H](C(=O)N[C@@H](CCC(=O)O)C(=O)N[C@@H](Cc1c[nH]c2ccccc12)C(=O)N[C@@H](CC(C)C)C(=O)N[C@@H](CCCNC(=N)N)C(=O)N[C@@H](CCCCN)C(=O)N[C@@H](CCCCN)C(=O)N[C@@H](CC(C)C)C(=O)N[C@@H](CCC(N)=O)C(=O)N[C@@H](CC(=O)O)C(=O)N[C@H](C(=O)N[C@@H](Cc1c[nH]cn1)C(=O)N[C@@H](CC(N)=O)C(=O)N[C@@H](Cc1ccc(O)cc1)C(N)=O)C(C)C)C(C)C [hPTH(1-34), [Tyr^34]hPTH(1-34)]",stimulation of phosphate uptake (in words),rat PTHR,identical
same,cAMP Accumulation (maximal response),human PTH/PTHrP receptor; HKRK B7 cells,99 ± 10 fold basal
same,cAMP Accumulation (maximal response),human PTH/PTHrP receptor; HKRK B28 cells,103 ± 17 fold basal
same,cAMP Accumulation (maximal response),human PTH/PTHrP receptor; HKRK B64 cells,13 ± 2 fold basal
same,cAMP Accumulation (maximal response),human PTH/PTHrP receptor; HKRK C27 cells,64 ± 8 fold basal
same,cAMP Accumulation (maximal response),human PTH/PTHrP receptor; HKRK C53 cells,58 ± 16 fold basal
same,cAMP Accumulation (maximal response),human PTH/PTHrP receptor; HKRK C101 cells,94 ± 1 fold basal
